From patent publication US7087424B1, “Method of controlling fungal pathogens, and agents useful for same” (priority 1999, dated 2006) come the findings set out here.

In data set [1] the test system is take-all fungus. Briefly: agar overlay / PDA plate bioassay against take-all fungus. It is filed as cell-based, G. graminis var tritici. The text has this: A modification of the agar plug assay (Poplawsky et al., 1988) was used to assay for bioactivity of extracts of Pseudomonas strain AN5, or derivative strains thereof, against take-all fungus, wherein an agar overlay assay was used to test activity of specific fractions. This assay involves macerating the take-all fungus grown in Potato Dextrose (PD) broth and seeding it to a Potato Dextrose Agar (PDA) overlay. This PDA overlay was poured onto thick PDA plates. Fractions to be tested for activity were spotted on top of the overlay, and the plates were dried and incubated at 16° C. for 3–5 days.
Active fractions were identified by the appearance of a clearance zone in the plates, within an opaque background of cultured fungus.

Data set [2] in a line: solubility. It counts as physicochemical. The conditions noted are these: in water. The text has this: Phenazine-1-carboxylic acid (PCA) is a pigmented greenish-yellow antibiotic which accumulates in cultures of P. fluorescens strain 2-79 (Gurusiddaiah et al, 1986). […] In contrast, the anti-fungal compound produced by Pseudomonas strain AN5 is highly-soluble in water. Moreover, Pseudomonas strain AN5 does produce coloured pigments while growing in media. Similarly, 2,4-diacetylphloroglucinol-producing strains of Pseudomonas sp. produce red pigments when grown on King's B medium (Keel et al, 1996). In contrast, no coloured substances were produced by Pseudomonas strain AN5 when grown on King's medium (FIG. 7).

As for `O=C(O)[C@@H](O)[C@@H](O)[C@H](O)[C@H](O)CO` [mannonic acid], in data set [1], the “biological activity against take-all relative to gluconic acid” value is given as “not as strong as gluconic acid”.
On to `O=C(O)[C@H](O)[C@@H](O)[C@H](O)[C@H](O)CO`, for which, in data set [2], the solubility result is listed as “highly-soluble”.
